From BindingDB's records for doi:10.1124/jpet.103.054775 (Cornell University, 2003)

Protein sequences, listed by entry. Tags and fused reporters are not part of them. Lines headed by an entry give the natural chain unless they say otherwise; changes in a name come on top.
UniProt P41145: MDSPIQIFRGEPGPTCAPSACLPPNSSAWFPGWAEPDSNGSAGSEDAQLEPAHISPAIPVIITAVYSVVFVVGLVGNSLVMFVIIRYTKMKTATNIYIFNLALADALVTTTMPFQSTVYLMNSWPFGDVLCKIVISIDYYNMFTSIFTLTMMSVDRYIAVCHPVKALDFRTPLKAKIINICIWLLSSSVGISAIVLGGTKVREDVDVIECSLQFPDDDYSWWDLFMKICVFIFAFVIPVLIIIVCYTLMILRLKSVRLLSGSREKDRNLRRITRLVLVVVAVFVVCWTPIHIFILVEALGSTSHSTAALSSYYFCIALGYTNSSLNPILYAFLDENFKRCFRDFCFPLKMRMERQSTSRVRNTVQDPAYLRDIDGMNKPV
UniProt P35372, whole entry: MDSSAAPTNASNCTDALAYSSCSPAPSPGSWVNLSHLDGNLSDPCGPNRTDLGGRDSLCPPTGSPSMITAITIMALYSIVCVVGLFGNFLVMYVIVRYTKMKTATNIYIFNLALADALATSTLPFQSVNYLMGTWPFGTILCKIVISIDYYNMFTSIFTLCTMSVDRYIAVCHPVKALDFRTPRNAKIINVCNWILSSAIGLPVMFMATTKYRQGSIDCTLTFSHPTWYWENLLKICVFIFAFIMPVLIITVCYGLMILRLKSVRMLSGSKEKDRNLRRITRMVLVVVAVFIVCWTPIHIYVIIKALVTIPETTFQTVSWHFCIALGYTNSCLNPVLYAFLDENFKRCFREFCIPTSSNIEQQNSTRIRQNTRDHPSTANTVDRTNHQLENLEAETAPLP
UniProt P41143, whole entry: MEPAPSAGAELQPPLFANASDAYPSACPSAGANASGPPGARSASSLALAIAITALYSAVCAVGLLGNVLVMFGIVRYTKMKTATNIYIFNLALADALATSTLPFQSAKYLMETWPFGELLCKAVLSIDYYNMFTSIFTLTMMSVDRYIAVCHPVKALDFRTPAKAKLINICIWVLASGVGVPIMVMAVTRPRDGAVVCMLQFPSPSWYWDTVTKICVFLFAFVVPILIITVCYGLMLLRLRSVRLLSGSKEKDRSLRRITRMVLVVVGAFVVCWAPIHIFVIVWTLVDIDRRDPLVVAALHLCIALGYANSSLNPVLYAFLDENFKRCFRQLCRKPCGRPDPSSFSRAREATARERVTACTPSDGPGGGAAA

Tests used:
[1] = target: Kappa-type opioid receptor (Homo sapiens, UniProt P41145)
Mu-type opioid receptor = Mu-type opioid receptor (Homo sapiens, UniProt P35372)
[2] = target: Delta-type opioid receptor (Homo sapiens, UniProt P41143)

Cc1cc(O)cc(C)c1C[C@H](N)C(=O)N[C@H](CCCNC(=N)N)C(=O)N[C@@H](Cc1ccccc1)C(=O)N[C@@H](CCCCN)C(N)=O [[Dmt1]DALDA]
Ki [1]: 4.4 nM | Ki (Mu-type opioid receptor): 0.172 nM | Ki [2]: 1670 nM
